Measurements published in ChEMBL document CHEMBL1125449, “Substitution on the Phe3 aromatic ring in cyclic delta opioid receptor-selective dermorphin/deltorphin tetrapeptide analogues: electronic and lipophilic requirements for receptor affinity” (J Med Chem, 1992).

By UniProt entry, the sequences of proteins in these tests, tags left out. Where a name states a change or a piece, a line headed by the entry shows the natural chain unless it says otherwise.
UniProt P41144: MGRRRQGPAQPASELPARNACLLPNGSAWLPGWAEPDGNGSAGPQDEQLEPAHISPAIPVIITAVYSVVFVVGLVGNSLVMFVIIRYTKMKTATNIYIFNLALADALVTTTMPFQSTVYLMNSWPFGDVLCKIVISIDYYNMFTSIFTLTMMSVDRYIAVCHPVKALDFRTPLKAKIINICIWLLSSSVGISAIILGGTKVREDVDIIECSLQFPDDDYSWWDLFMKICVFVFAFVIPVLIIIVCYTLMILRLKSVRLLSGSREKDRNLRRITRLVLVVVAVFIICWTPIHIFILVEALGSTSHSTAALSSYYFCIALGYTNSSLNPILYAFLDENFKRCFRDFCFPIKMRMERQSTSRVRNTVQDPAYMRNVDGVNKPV
UniProt P97266, whole entry: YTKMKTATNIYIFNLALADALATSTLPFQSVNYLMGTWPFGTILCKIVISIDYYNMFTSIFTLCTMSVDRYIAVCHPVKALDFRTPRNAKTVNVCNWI

Columns and labels:
[1] = molecular target: Kappa-type opioid receptor (Cavia porcellus, UniProt P41144); assay: Compound was tested for the inhibition of [3H]- (U69,593) binding to Opioid receptor kappa 1 in guinea pig brain homogenates; assay type: tissue-based
Mu-type opioid receptor = Mu-type opioid receptor (Cavia porcellus, UniProt P97266); assay: Compound was tested for the inhibition of [3H]- [D-Ala2, N-MePhe4, Gly5-ol]-enkephalin (DAMGO) binding to Opioid receptor mu 1 in guinea pig brain homogenates; assay type: tissue-based
Outline: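 Guinea pig brain membranes (washed, preincubated 37 °C 30 min to remove endogenous opioids) in 50 mM Tris pH 7.4. Test compound preincubated with membranes 15 min at 25 °C, then 0.6 nM [3H]DAMGO added and incubated 75 min at 25 °C. Nonspecific binding defined with 5 μM DAMGO. Filtration, scintillation counting. 12 concentrations, triplicate. IC50 by regression; Ki from saturation-derived KD.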

With `CC1(C)SSC[C@H](NC(=O)[C@@H](N)Cc2ccc(O)cc2)C(=O)N[C@@H](Cc2ccccc2)C(=O)N[C@@H]1C(=O)O` the Ki [1] was over 10000 nM and the Ki (Mu-type opioid receptor) was 107 nM.
